Source: PMC9303311

Chains of the proteins cited; added tags and fusions are not shown.
UniProt Q9Y3Z3, whole entry T592E: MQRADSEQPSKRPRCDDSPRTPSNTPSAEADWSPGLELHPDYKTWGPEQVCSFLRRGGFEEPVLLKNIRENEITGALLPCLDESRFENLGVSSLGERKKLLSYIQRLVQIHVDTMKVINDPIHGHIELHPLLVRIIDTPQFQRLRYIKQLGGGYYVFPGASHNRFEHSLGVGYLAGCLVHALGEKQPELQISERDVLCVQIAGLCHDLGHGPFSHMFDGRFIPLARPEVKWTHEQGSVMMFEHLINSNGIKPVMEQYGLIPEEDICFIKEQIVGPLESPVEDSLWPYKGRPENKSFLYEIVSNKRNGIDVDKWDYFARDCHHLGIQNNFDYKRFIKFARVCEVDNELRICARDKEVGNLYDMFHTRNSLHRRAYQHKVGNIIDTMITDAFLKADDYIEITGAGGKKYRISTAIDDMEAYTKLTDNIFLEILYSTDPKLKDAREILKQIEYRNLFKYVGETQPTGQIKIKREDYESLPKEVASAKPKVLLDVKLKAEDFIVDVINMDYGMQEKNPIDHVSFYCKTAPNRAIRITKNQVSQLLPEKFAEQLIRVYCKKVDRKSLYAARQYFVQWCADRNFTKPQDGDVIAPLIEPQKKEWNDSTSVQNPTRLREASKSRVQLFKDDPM

Biological target: SAMHD1 (UniProt Q9Y3Z3)
Experiment: glutaraldehyde crosslinking time course with ssDNA
Conditions: reference: unphosphorylated wild type; sites T592

SAMHD1 (from UniProt Q9Y3Z3) T592E
other: tetramer dissociation half-life: weaker; reference 17
